The target in the assay is interaction between p53 and MDM2 (Homo sapiens, UniProt Q00987). Nature of the assay: Tyk2(C) kinase substrate sensor luciferase reporter assay, p53(N)/MDM2 interaction. The note with it: HEK293-T cells, FIG. 4.

Amino acid sequences for entries named in this document (tags omitted). A change or cut given only in a name is not applied to a line headed by its entry.
UniProt Q00987: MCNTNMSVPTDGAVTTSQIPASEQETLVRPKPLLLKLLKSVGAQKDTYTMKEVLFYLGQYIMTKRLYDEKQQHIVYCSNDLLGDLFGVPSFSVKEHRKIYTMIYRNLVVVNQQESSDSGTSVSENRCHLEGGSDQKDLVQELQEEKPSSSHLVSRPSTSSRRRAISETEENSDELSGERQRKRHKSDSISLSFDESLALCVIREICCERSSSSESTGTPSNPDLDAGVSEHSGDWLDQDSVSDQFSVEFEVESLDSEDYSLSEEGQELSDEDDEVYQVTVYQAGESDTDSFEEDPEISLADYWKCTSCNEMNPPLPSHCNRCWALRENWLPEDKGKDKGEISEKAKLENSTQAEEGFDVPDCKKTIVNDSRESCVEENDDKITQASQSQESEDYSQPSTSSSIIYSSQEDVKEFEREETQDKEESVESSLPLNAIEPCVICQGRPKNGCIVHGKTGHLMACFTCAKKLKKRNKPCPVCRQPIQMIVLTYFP

Consider Nutlin-3, for which the “signal from control transfection with unfused gp130 receptor fragment” value (pMet7-HA-Tyk2(C)-p53(N)+pMG1, 0-3333 nM) was “unaffected”. Moreover, the “signal for the interaction between p53 (N-terminal region) and MDM2” value (pMet7-HA-Tyk2(C)-p53(N)+pMG2-MDM2, 0-14-41-123-370-1111-3333 nM, added 24 hours after transfection) was “dose-dependent decrease”.

For the origin of these results see US11242511B2, “Cytoplasmic protein complex comprising a kinase substrate sensor, cells comprising the complex, and associated detection methods” (VIB VZW, priority 2011, dated 2022).
